This is a selection; strong and weak results do not stand in their true shares. The source made the active and inactive calls.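 Rule for the calls: active = inhibition exceeding 3 SD of buffer-only control wells (cut at about 26% in these data); inactive = the rest.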
test: M3R calcium signalling without RGS4 expression – cell-based, HEK293 M3R, non-induced RGS4, Fluo-4 calcium, counter-screen for RGS4 activator project, primary screen (AID 602283); details: HEK293 M3R non-induced RGS4, Fluo4 calcium flux; at 10 µM; active compounds read high; after carbachol challenge at its EC90;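 note: percent drop in integrated peak-minus-baseline over baseline Fluo4 ratio after carbachol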

Structure (SMILES) | inhibition
CN1CCCCC1COC(=O)C1(O)c2ccccc2CCc2ccccc21 (centres undefined) | active: 25.8%
CCN(CC)CCCOC(=O)C(O)(c1ccccc1)c1ccccc1 | active: 93.3%
O=C(OCCCN1CCCC1)C(O)(c1ccccc1)C1CCCCC1 (centres undefined) | active: 90.3%
CN(C)CCOC(=O)C(O)(c1ccccc1)C1CCCCC1 (centres undefined) | active: 94.8%

Source: PubChem BioAssay AID602283 (Johns Hopkins Ion Channel Center, 2012)
